Source: patent publication US9850245B2 (Merck Sharp & Dohme Corp., priority 2014, dated 2017)

The chains behind the UniProt entries cited, without tags or fusion partners. Where a name states a change or a piece, a line headed by the entry shows the natural chain unless it says otherwise.
UniProt P48048: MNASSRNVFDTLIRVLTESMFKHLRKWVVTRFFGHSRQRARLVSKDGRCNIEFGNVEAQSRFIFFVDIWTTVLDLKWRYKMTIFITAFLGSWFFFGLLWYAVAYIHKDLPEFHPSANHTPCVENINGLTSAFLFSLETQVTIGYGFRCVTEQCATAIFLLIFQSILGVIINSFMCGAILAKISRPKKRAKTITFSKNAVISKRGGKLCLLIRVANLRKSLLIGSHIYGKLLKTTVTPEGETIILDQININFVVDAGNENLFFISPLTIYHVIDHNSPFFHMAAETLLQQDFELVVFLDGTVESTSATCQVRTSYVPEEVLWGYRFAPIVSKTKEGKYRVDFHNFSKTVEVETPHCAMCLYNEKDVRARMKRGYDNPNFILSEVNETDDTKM

Columns and labels:
ROMK = ROMK (Homo sapiens (Human), UniProt P48048); experiment: Thallium Flux Assay; type: cell-based
Procedure: A Thallium Flux Assay was performed on the compounds of the Examples. This assay has been described previously; see, e.g., PCT Published Application WO 2013/062900.

Kir1.1 (ROMK1) = Kir1.1 (ROMK1) (Homo sapiens (Human), UniProt P48048); experiment: Electrophysiology Assay (whole cell voltage clamp, IonWorks Quattro); type: cell-based; settings: Chinese hamster ovary cells stably expressing Kir1.1; fractional block at voltage step to 0 mV; 6 min compound incubation
Procedure: Blocking of Kir1.1 (ROMK1) currents was examined by whole cell voltage clamp (Hamill et. al. Pfluegers Archives 391:85-100 (1981)) using the IonWorks Quattro automated electrophysiology platform (Molecular Devices, Sunnyvale, Calif.). Chinese hamster ovary cells stably expressing Kir1.1 channels were maintained in T-75 flasks in cell culture media in a humidified 10% CO2 incubator at 37° C. Prior to an experiment, Kir1.1 expression was induced by overnight incubation with 1 mM sodium butyrate. On the day of the experiment, cells were dissociated with 2.5 mL of Versene (Invitrogen 15040-066), a non-enzymatic cell dissociation reagent, for approximately 6 min at 37° C. and suspended in 10 mL of bath solution containing (in mM): 150 NaCl, 10 KCl, 2.7 CaCl2, 0.5 MgCl2, and 5 HEPES, at pH 7.4. After centrifugation, the cell pellet was resuspended in approximately 4.0 mL of bath solution and placed in the IonWorks instrument. The intracellular solution consisted of (in mM): 80 K gluconate, 40 KCl, 20 KF, 3.2 MgCl2, 3 EGTA, and 5 Hepes, at pH 7.4. Electrical access to the cytoplasm was achieved by perforation in 0.13 mg/mL amphotericin B for 4 min. Amphotericin B (Sigma A-4888) was prepared as a 40 mg/mL solution in DMSO.
Voltage protocols and current recordings were performed using the IonWorks HT software/hardware system. Currents were sampled at 1 kHz. There was no correction for liquid junction potentials. The test pulse, consisting of a 100 ms (millisecond) step to 0 mV (millivolts) from a holding potential of −70 mV, followed by a 100 ms voltage ramp from −70 mV to +70 mV, was applied before and after a 6 min compound incubation period. Test compounds were prepared by diluting DMSO stock solutions into the bath solution at 3× the final concentration and placed in the instrument in 96-well polypropylene plates. Current amplitudes were measured using the IonWorks software. To assess compound potency, the fractional block during the voltage step to 0 mV was calculated in Microsoft Excel (Microsoft, Redmond, Calif.), and dose-response curves were fitted with Igor Pro 4.0 (WaveMetrics, Lake Oswego, Oreg.). Although not required, a control compound is typically included to support that the assay is giving consistent results compared to previous measurements.

CC1=C(N2CCOC3(CCN(CC(O)c4ccc(-n5cnnn5)cc4)CC3)C2=O)COC1=O (single isomer, unassigned) [Example 9A, 9-(2-(4-(1H-tetrazol-1-yl)phenyl)-2-hydroxyethyl)-4-(4-methyl-5-oxo-2,5-dihydrofuran-3-yl)-1-oxa-4,9-diazaspiro[5.5]undecan-5-one]
IC50 (ROMK): 15.8 nM
IC50 (Kir1.1 (ROMK1)): 4.8 nM

CC1=C(N2CCOC3(CCN(CC(O)c4ccc(-n5cnnn5)cc4)CC3)C2=O)COC1=O (single isomer, unassigned) [Example 9B, 9-(2-(4-(1H-tetrazol-1-yl)phenyl)-2-hydroxyethyl)-4-(4-methyl-5-oxo-2,5-dihydrofuran-3-yl)-1-oxa-4,9-diazaspiro[5.5]undecan-5-one]
IC50 (ROMK): 12.3 nM

Cc1nc(-n2cnnn2)ccc1C(O)CN1CCC2(CC1)CN(C1=C(Cl)C(=O)OC1)CCO2 (single isomer, unassigned) [Example 25A, 3-chloro-4-(9-(2-hydroxy-2-(2-methyl-6-(1H-tetrazol-1-yl)pyridin-3-yl)ethyl)-1-oxa-4,9-diazaspiro[5.5]undecan-4-yl)furan-2(5H)-one]
IC50 (ROMK): 5.56 nM
IC50 (Kir1.1 (ROMK1)): 16 nM

Cc1nc(-n2cnnn2)ccc1C(O)CN1CCC2(CC1)CN(C1=C(Cl)C(=O)OC1)CCO2 (single isomer, unassigned) [Example 25B, 3-chloro-4-(9-(2-hydroxy-2-(2-methyl-6-(1H-tetrazol-1-yl)pyridin-3-yl)ethyl)-1-oxa-4,9-diazaspiro[5.5]undecan-4-yl)furan-2(5H)-one]
IC50 (ROMK): 106 nM

CC1=C(N2CCOC3(CCN(CC(O)c4ccc(-n5cnnn5)nn4)CC3)C2=O)COC1=O (single isomer, unassigned) [Example 45A, 9-(2-(6-(1H-tetrazol-1-yl)pyridazin-3-yl)-2-hydroxyethyl)-4-(4-methyl-5-oxo-2,5-dihydrofuran-3-yl)-1-oxa-4,9-diazaspiro[5.5]undecan-5-one]
IC50 (ROMK): 37.3 nM
IC50 (Kir1.1 (ROMK1)): 15 nM

CC1=C(N2CCOC3(CCN(CC(O)c4ccc(-n5cnnn5)nn4)CC3)C2=O)COC1=O (single isomer, unassigned) [Example 45B, 9-(2-(6-(1H-tetrazol-1-yl)pyridazin-3-yl)-2-hydroxyethyl)-4-(4-methyl-5-oxo-2,5-dihydrofuran-3-yl)-1-oxa-4,9-diazaspiro[5.5]undecan-5-one]
IC50 (ROMK): 44.6 nM
IC50 (Kir1.1 (ROMK1)): 20 nM
